The target in the test is T1, Tyrosine-protein phosphatase non-receptor type 2 (Homo sapiens, UniProt P17706).
T1 sequence (P17706 whole entry): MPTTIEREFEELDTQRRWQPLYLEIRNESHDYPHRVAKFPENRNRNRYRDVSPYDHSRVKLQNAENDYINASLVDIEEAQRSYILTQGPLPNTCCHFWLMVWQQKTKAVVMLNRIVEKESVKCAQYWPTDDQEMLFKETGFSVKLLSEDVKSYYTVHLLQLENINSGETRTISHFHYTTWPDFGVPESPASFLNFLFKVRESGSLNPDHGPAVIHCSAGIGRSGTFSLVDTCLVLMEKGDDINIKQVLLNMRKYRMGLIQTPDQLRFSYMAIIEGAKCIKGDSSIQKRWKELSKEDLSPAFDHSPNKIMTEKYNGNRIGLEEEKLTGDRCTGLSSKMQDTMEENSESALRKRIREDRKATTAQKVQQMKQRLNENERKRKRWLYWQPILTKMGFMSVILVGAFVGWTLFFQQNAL
Nature of the test: Inhibitory activity tested against T-cell Protein tyrosine phosphatase 2 (TCPTP).

Each structure is given as a SMILES string.

As to `CCc1cc(CC(NC(C)=O)C(=O)NCCCCC(=O)N[C@H](CCSC)C(=O)O)ccc1N(C(=O)C(=O)O)c1ccccc1C(=O)O` (stereo partly specified), the affinity corresponds to a Ki of 1000 nM.

The values above are taken from ChEMBL document CHEMBL1136518, “Potent, selective inhibitors of protein tyrosine phosphatase 1B” (Bioorg Med Chem Lett, 2003).
